# Yeast mating assay 2: variants of the scFv Ab-95

Data: MIT Lincoln Laboratory AlphaSeq set, Engelhart et al. 2022, doi:10.1038/s41597-022-01779-4, as distributed in FLAb.

Target: peptide PDVDLGDISGINAS, taken from heptad repeat 2 (HR2) of SARS-CoV-2 spike.

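Phage display of a naive human antibody library on the peptide gave the parent. The library (AAYL52) carries one to three amino acid substitutions per variant, with no insertions or deletions. The assay is AlphaSeq: two haploid yeast populations carry antibody and antigen on their surface. The frequency of each diploid, read from paired DNA barcodes, reflects how well the two displayed proteins bind. Scores were corrected for input abundance and mapped to Kd with protein pairs of known affinity run in the same pool. There are three technical replicates.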

Ab-95 is the parent antibody, in scFv form: VH, then the linker GGGGSGGGGSGGGGS, then VL. The heavy chain is unchanged in all variants.
VH: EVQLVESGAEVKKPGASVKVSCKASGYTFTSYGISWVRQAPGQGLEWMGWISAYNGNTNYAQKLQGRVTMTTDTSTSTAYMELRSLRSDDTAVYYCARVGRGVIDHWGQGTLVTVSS
VL: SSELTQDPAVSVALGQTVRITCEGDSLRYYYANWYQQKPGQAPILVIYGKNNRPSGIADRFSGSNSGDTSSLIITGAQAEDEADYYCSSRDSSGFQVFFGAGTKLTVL

Substitutions are numbered in sequence along the VL above, starting at 1 (not Kabat). Values are log10 of the apparent Kd in nM; lower means stronger binding. Replicates are averaged; those with no signal do not enter the mean. Where no diploid with the target was found in that replicate, the entry reads "nd": below detection, most likely a poor binder, though not proof of it.

E23F+G49T+Q96F: 4.19, 5.73, nd (mean 4.96; controls 2 of 9).
N51H+S88D+S89E: 2.87, 2.49, 3.71 (mean 3.02; controls 5 of 9).
A32V+S88N+S92A: 3.04, 3.04, 2.56 (mean 2.88; controls 2 of 9).
N33K+R90E+F95W: nd, 4.15, nd (controls 2 of 9).
R28P+Y31M+F95D: 2.89, 1.97, nd (mean 2.43; controls 1 of 9).
N33S+G49F+N52E: nd, nd, nd (controls 1 of 9).
R28A+N33M+G94T: nd, nd, 3.48 (controls 2 of 9).
S26H+L27C+K50V: 3.79, 3.40, nd (mean 3.60; controls 0 of 9).
Y31P+R90E+F95N: 1.76, 1.75, 1.62 (mean 1.71; controls 1 of 9).
D25G+S92M+Q96W: 2.84, 3.22, 2.78 (mean 2.95; controls 4 of 9).
Y31H+G49P+S88T: 3.55, 4.58, nd (mean 4.06; controls 4 of 9).
Y29M+N51Y+R90Y: 3.80, 3.93, nd (mean 3.87; controls 4 of 9).
N33P+N51T+R90Y: nd, nd, nd (controls 1 of 9).
Y31P: 1.13, 1.04, 0.68 (mean 0.95; controls 5 of 9).
E23H+D25R+G49A: 3.82, 3.58, 3.04 (mean 3.48; controls 4 of 9).
G49M+G94W+F95N: 3.05, nd, 4.10 (mean 3.58; controls 1 of 9).
R28A+Y30M+S88R: 4.06, 2.91, nd (mean 3.49; controls 1 of 9).
R28P+K50Q+S88N: 3.70, 3.03, 1.96 (mean 2.90; controls 1 of 9).
R53G+S55V+F98M: nd, 5.07, nd (controls 1 of 9).
N33D+S88W+S93H: nd, 3.06, 4.10 (mean 3.58; controls 2 of 9).
K50Q+P54I+S88D: 3.22, 3.25, nd (mean 3.24; controls 0 of 9).
E23H+R53H+V97L: 2.94, 2.56, 2.75 (mean 2.75; controls 3 of 9).
N51M+S89D+R90S: 2.60, 3.01, 4.10 (mean 3.24; controls 3 of 9).
L27K+S92A+Q96P: 4.48, nd, 4.10 (mean 4.29; controls 4 of 9).
G24I+N52E+G94A: 2.87, 4.18, 4.03 (mean 3.69; controls 4 of 9).
K50C+V97D: 3.51, 3.42, 4.13 (mean 3.69; controls 4 of 9).
Y31F+A32Q+N51H: 4.01, 4.47, 3.41 (mean 3.96; controls 3 of 9).
R28I: 2.26, 2.57, 2.16 (mean 2.33; controls 2 of 9).
N51F+R53Y+S92T: nd, nd, nd (controls 1 of 9).
Y29N+R53S+R90N: 3.46, 3.29, 2.87 (mean 3.20; controls 2 of 9).
E23R+N33L+D91N: 5.65, 4.68, 4.58 (mean 4.97; controls 2 of 9).
G49Q+N51F+F95W: nd, 5.23, nd (controls 2 of 9).
K50F+S55F+G94C: nd, nd, nd (controls 0 of 9).
Y30P+Y31E+S88W: nd, nd, nd (controls 1 of 9).
Y30M+R90E+F98L: 2.27, 2.23, 2.19 (mean 2.23; controls 4 of 9).
Y29P+N33P+G49F: nd, nd, nd (controls 3 of 9).
R28F+Y30L+S92F: nd, 3.98, 4.03 (mean 4.00; controls 3 of 9).
R28L+R90V+D91M: 3.85, 4.43, nd (mean 4.14; controls 2 of 9).
S26F+Q96V+V97Y: 3.24, 3.02, 2.35 (mean 2.87; controls 1 of 9).

A selection of 2 entries from above:

Variant D25G+S92M+Q96W showed 2.84, 3.22, 2.78 (mean 2.95; controls 4 of 9).
Variant Y29N+R53S+R90N showed 3.46, 3.29, 2.87 (mean 3.20; controls 2 of 9).

Three control strains display no target. For library AAYL52, 28% of the pairings with them gave a signal, with a median of 3.91 and one signal in twenty below 2.90, so weak values seen in few replicates may be background. The control count says in how many pairings with the empty strains this scFv gave a signal.